The target of assay [1] is human full-lengt MKNK1 (GST fusion, T344D) (Homo sapiens (Human), UniProt Q9BUB5, T344D). Briefly: MKNK1 kinase assay (TR-FRET, 10 μM ATP). It is filed as biochemical. The following applies: 15 min preincubation. An excerpt: MKNK1-inhibitory activity of compounds of the present invention was quantified employing the MKNK1 TR-FRET assay as described in the following paragraphs.
A recombinant fusion protein of Glutathione-S-Transferase (GST, N-terminally) and human full-lengt MKNK1 (amino acids 1-424 and T344D of accession number BAA 19885.1), expressed in insect cells using baculovirus expression system and purified via glutathione sepharose affinity chromatography, was purchased from Carna Biosciences (product no 02-145) and used as enzyme. As substrate for the kinase reaction the biotinylated peptide biotin-Ahx-[…] (C-terminus in amide form) was used which can be purchased e.g. form the company Biosyntan (Berlin-Buch, Germany).
(§1) For the assay 50 nL of a 100 fold concentrated solution of the test compound in DMSO was pipetted into a black low volume 384 well microtiter plate (Greiner Bio-One, Frickenhausen, Germany), 2 μL of a solution of MKNK1 in aqueous assay buffer [50 mM HEPES pH 7.5, 5 mM magnesium chloride, 1.0 mM dithiothreitol, 0.005% (v/v) Nonidet-P40 (Sigma)] was added and the mixture was incubated for 15 min at 22° C. to allow pre-binding of the test compounds to the enzyme before the start of the kinase reaction. Then the kinase reaction was started by the addition of 3 μL of a solution of adenosine-tri-phosphate (ATP, 16.7 μM=>final conc. in the 5 μL assay volume is 10 μM) and substrate (0.1 μM=>final conc. in the 5 μL assay volume is 0.06 μM) in assay buffer and the resulting mixture was incubated for a reaction time of 45 min at 22° C. The concentration of MKNK1 was adjusted depending of the activity of the enzyme lot and was chosen appropriate to have the assay in the linear range, typical concentrations were in the range of 0.05 μg/ml. The reaction was stopped by the addition of 5 μL of a solution of TR-FRET detection reagents (5 nM streptavidine-XL665 [Cisbio Bioassays, Codolet, France] and 1 nM anti-ribosomal protein S6 (pSer236)-antibody from Invitrogen [#44921G] and 1 nM LANCE EU-W1024 labeled ProteinG [Perkin-Elmer, product no. AD0071]) in an aqueous EDTA-solution (100 mM EDTA, 0.1% (w/v) bovine serum albumin in 50 mM HEPES pH 7.5).
(§2) The resulting mixture was incubated for 1 h at 22° C. to allow the formation of complex between the phosphorylated biotinylated peptide and the detection reagents. Subsequently the amount of phosphorylated substrate was evaluated by measurement of the resonance energy transfer from the Eu-chelate to the streptavidine-XL. Therefore, the fluorescence emissions at 620 nm and 665 nm after excitation at 350 nm were measured in a TR-FRET reader, e.g. a Rubystar (BMG Labtechnologies, Offenburg, Germany) or a Viewlux (Perkin-Elmer). The ratio of the emissions at 665 nm and at 622 nm was taken as the measure for the amount of phosphorylated substrate.
In general terms: Time-resolved FRET reads energy transfer from a long-lived donor to a nearby acceptor.

By UniProt entry, the sequences of proteins in these tests, tags left out. Chains listed by the source or under a name are the forms on record and can include a tag or linker.
UniProt Q9BUB5, other isoform, or with tags, fused parts or gaps T344D: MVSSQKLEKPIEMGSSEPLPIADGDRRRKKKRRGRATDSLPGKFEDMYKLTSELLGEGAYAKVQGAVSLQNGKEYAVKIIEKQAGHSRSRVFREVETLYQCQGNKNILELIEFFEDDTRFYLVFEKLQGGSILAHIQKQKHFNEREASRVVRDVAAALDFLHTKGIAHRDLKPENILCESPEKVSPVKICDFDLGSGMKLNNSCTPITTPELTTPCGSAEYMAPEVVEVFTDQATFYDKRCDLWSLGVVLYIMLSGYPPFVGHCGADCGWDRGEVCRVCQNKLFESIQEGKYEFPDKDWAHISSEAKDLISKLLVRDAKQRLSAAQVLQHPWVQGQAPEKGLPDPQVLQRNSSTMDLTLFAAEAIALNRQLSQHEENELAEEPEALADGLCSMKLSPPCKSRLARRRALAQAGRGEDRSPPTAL

Assay [2] deals with human full-length MKNK1 (GST fusion, T344D) (Homo sapiens (Human), UniProt Q9BUB5, T344D). Briefly: MKNK1 kinase high ATP assay (TR-FRET, 2 mM ATP). It counts as biochemical. As to conditions: 15 min preincubation. Here is the method:
MKNK1 Kinase High ATP Assay
MKNK1-inhibitory activity at high ATP of compounds of the present invention after their preincubation with MKNK1 was quantified employing the TR-FRET-based MKNK1 high ATP assay as described in the following paragraphs.
A recombinant fusion protein of Glutathione-S-Transferase (GST, N-terminally) and human full-length MKNK1 (amino acids 1-424 and T344D of accession number BAA 19885.1), expressed in insect cells using baculovirus expression system and purified via glutathione sepharose affinity chromatography, was purchased from Carna Biosciences (product no 02-145) and used as enzyme. As substrate for the kinase reaction the biotinylated peptide biotin-Ahx-[…] (C-terminus in amide form) was used, which can be purchased e.g. from the company Biosyntan (Berlin-Buch, Germany).
as §1, with “3.3 mM=>final” for “16.7 μM=>final”, “2 mM)” for “10 μM)”, “30” for “45”, “0.003 μg/mL.” for “0.05 μg/ml.”
as §2

`O=C(CCc1ccc(F)cc1)Nc1ccc2ncc(-c3cc4ccccc4o3)n2n1` [Example 29, N-[3-(1-benzofuran-2-yl)imidazo[1,2-b]pyridazin-6-yl]-3-(4-fluorophenyl)propanamide]: the figures for the half-maximal inhibitory concentration (IC50) in assay [1] and in assay [2] were 44 nM and 67 nM, respectively.

On to `N#CCC(=O)Nc1ccc2ncc(-c3cc4ccccc4o3)n2n1` [Example 26, N-[3-(1-benzofuran-2-yl)imidazo[1,2-b]pyridazin-6-yl]-2-cyanoacetamide], for which the 50% inhibitory concentration (IC50) (commonly the concentration that gives 50% inhibition) in assay [1] amounted to 14 nM; in assay [2], 10 nM.

For the compound `O=C(Nc1ccc2ncc(-c3cc4ccccc4o3)n2n1)C(O)C1CC1` (stereo not shown) [Example 12, N-[3-(1-Benzofuran-2-yl)imidazo[1,2-b]pyridazin-6-yl]-2-cyclopropyl-2-hydroxyacetamide], the half-inhibitory concentration (IC50) in assay [1] worked out at 5 nM; in assay [2], 11 nM.

With `O=C(Nc1ccc2ncc(-c3cc4ccccc4o3)n2n1)C1CCOCC1` [Example 27, N-[3-(1-benzofuran-2-yl)imidazo[1,2-b]pyridazin-6-yl]tetrahydro-2H-pyran-4-carboxamide], the IC50 was 25 nM in assay [1] and 35 nM in assay [2].

For `O=C(Cc1cccnc1)Nc1ccc2ncc(-c3cc4ccccc4o3)n2n1` [Example 7, N-[3-(1-Benzofuran-2-yl)imidazo[1,2-b]pyridazin-6-yl]-2-(pyridin-3-yl)acetamide], the values for the half-maximal inhibitory concentration (IC50) in assay [1] and in assay [2] were 5 nM and 11 nM, respectively.

On to `O=C(Nc1ccc2ncc(-c3cc4ccccc4o3)n2n1)C(O)C1CCOCC1` (stereo not shown) [Example 5, N-[3-(1-Benzofuran-2-yl)imidazo[1,2-b]pyridazin-6-yl]-2-hydroxy-2-(tetrahydro-2H-pyran-4-yl)acetamide], for which the IC50 in assay [1] came to 4 nM; in assay [2], 8 nM.

With `N#Cc1ccc(CC(=O)Nc2ccc3ncc(-c4cc5ccccc5o4)n3n2)cc1` [Example 18, N-[3-(1-Benzofuran-2-yl)imidazo[1,2-b]pyridazin-6-yl]-2-(4-cyanophenyl)-acetamide], the IC50 in assay [1] and in assay [2] was 10 nM in each case.

Regarding `CN(C)CC(=O)Nc1ccc2ncc(-c3cc4ccccc4o3)n2n1` [Example 28, N-[3-(1-benzofuran-2-yl)imidazo[1,2-b]pyridazin-6-yl]-N^2,N^2-dimethylglycinamide], the IC50 in assay [1] was found to be 17 nM; in assay [2], 28 nM.

For `Cn1cc(CCC(=O)Nc2ccc3ncc(-c4cc5ccccc5o4)n3n2)cn1` [Example 20, N-[3-(1-benzofuran-2-yl)imidazo[1,2-b]pyridazin-6-yl]-3-(1-methyl-1H-pyrazol-4-yl)propanamide], the half-maximal inhibitory concentration (IC50) in assay [1] amounted to 6 nM; in assay [2] it was 15 nM.

As for `O=C(CN1CCCC1)Nc1ccc2ncc(-c3cc4ccccc4o3)n2n1` [Example 30, N-[3-(1-benzofuran-2-yl)imidazo[1,2-b]pyridazin-6-yl]-2-(pyrrolidin-1-yl)acetamide], the concentration for half-maximal inhibition (IC50) was 30 nM in assay [1] and 28 nM in assay [2].

For `O=C(Cc1ccccc1C(F)(F)F)Nc1ccc2ncc(-c3cc4ccccc4o3)n2n1` [Example 25, N-[3-(1-benzofuran-2-yl)imidazo[1,2-b]pyridazin-6-yl]-2-[2-(trifluoromethyl)phenyl]acetamide], the IC50 worked out at 31 nM in assay [1] and 35 nM in assay [2].

Source of the values: US9745304B2, “Amidoimidazopyridazines as MKNK-1 kinase inhibitors” (BAYER PHARMA AKTIENGESELLSCHAFT, priority 2013, dated 2017).
